Experimental data as given in patent US9700578B2, “Use of nitrite salts for the treatment of cardiovascular conditions” (The United States of America as represented by the …, priority 2003, dated 2017).

Experiments:
[1] = tested on: hypoxic-induced pulmonary hypertension
[2] = tested on: U46619-induced normoxic pulmonary hypertension

In the case of `O=NO` [sodium nitrite], the “reduction of pulmonary artery resistance” value ([1]; FiO2 0.12, nebulized nitrite) is reported as ~70%, the “effect on mean arterial blood pressure or systemic vascular resistance” value ([1]; hypoxia, versus control animals) is reported as “no measurable effect” and the “effect on mean arterial blood pressure or systemic vascular resistance” value [2] is reported as “no effect”.
